Test results taken from ChEMBL document CHEMBL3351716, “Targeting the androgen receptor with steroid conjugates” (J Med Chem, 2014).

Tested on: LNCaP
Experiment: Antitumor activity against human LNCAP cells xenografted in immunocompromised mouse assessed as tumor growth inhibition at 30 mg/kg, ip for 5 days a week for 7 consecutive weeks relative to vehicle-treated control

ClCCN(CCCl)c1ccccc1
TGI: 90%
